# Data published in ChEMBL document CHEMBL1133616, “Synthesis and structure-activity relationships of a new set of 2-arylpyrazolo[3,4-c]quinoline derivatives as adenosine receptor antagonists” (J Med Chem, 2000).
# Test system: Adenosine receptor A2a (Bos taurus)
# Test: Inhibition of specific [3H]-CGS- 21680 binding at Adenosine A2A receptor in bovine striatal membranes at 20 uM.
# Conditions: Striatum, Membrane
row,SMILES,inhibition [%]
1,Cc1ccc(-n2cc3c(n2)c(N)nc2ccccc23)cc1,21
2,Cn1c(=O)c2nn(-c3ccccc3)cc2c2ccccc21,47
3,CCCn1c(=O)c2nn(-c3ccccc3)cc2c2ccccc21,50
4,O=C(Nc1nc2ccccc2c2cn(-c3ccccc3)nc12)c1ccccc1,3
5,O=C(Cc1ccccc1)Nc1nc2ccccc2c2cn(-c3ccccc3)nc12,13
6,Cc1ccc(-n2cc3c(n2)c(NC2CCCCC2)nc2ccccc23)cc1,13
7,Cc1ccc(-n2cc3c(n2)c(=O)[nH]c2ccccc23)cc1,22
